Patent US11053242B2, “[9,10-dimethoxy-3-(2-methylpropyl)-1H,2H,3H,4H,6H,7H,11BH-pyrido-[2,1-a]isoquinolin-2-yl]methanol and compounds, compositions and methods relating thereto” (Neurocrine Biosciences, Inc., priority 2015, dated 2021)

Protein sequences, listed by entry. Tags and fused reporters are not part of them.
UniProt Q05940, whole entry: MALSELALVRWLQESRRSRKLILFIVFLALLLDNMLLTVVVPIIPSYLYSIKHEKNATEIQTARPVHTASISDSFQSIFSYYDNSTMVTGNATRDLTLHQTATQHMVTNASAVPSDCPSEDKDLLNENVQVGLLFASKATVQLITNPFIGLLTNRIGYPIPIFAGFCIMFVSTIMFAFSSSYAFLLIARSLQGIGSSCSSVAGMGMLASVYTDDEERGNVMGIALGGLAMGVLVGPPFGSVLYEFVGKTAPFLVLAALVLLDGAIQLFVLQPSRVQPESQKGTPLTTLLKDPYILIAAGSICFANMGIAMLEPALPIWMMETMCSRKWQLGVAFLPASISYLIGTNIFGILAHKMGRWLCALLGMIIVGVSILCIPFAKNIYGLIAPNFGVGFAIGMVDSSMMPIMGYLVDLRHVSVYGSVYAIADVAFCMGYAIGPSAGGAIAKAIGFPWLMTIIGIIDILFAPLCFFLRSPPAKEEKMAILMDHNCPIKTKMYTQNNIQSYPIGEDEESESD

Molecular target: VMAT2 (human platelet homogenate) (Homo sapiens (Human), UniProt Q05940)
Assay: Human VMAT2 Ki, slightly modified competition binding procedure (Table 11);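 note: competition binding with 90 min incubation at 25 °C, after which filter-retained radioligand was measured by scintillation counting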
Details: read-out: Ki nM, 10 nM 3H-dihydrotetrabenazine

SMILES: [2H]C([2H])([2H])OC[C@@H]1C[C@@H]2c3cc(OC)c(OC)cc3CCN2C[C@H]1CC(C)C
- Ki: < 10 nM
